Values quoted from earlier work in publication PMC5126733 (Journal of medicinal chemistry, 2015).

The chains behind the UniProt entries cited, without tags or fusion partners. Where a name states a change or a piece, a line headed by the entry shows the natural chain unless it says otherwise.
UniProt P11511: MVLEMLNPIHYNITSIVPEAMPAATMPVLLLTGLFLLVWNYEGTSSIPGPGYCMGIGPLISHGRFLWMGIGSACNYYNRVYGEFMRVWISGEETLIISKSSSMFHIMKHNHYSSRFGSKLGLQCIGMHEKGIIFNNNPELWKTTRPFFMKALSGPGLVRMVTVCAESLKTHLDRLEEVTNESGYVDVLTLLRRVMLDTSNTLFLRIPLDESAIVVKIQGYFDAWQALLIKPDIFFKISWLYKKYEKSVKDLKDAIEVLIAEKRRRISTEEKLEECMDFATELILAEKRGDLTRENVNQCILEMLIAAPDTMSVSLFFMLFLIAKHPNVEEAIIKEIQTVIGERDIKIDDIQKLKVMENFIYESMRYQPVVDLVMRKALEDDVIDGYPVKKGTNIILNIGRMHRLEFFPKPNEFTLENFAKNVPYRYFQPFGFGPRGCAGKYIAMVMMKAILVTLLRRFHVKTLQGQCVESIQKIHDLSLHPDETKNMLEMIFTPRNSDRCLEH

Target: recombinant human aromatase (CYP19) (Homo sapiens, UniProt P11511)
Settings: previous testing results; cited from earlier work

In the case of `CCC(=C(c1ccc(O)cc1)c1ccc(OCCN)cc1)c1ccccc1` [(E,Z)-norendoxifen], the “fold increase in aromatase inhibitory activity compared with 7” value is given as > 240 fold.
